Data published in patent US9134328B2, “Methods of using benzothiazole derivative compounds and compositions” (University of Pittsburgh—Of the Commonwealth System of …, priority 2003, dated 2015).

Experiment: In vivo mouse brain entry studies
Set-up: species or system female Swiss-Webster mice
Method: Experiments to assess brain penetration of 2-(3′-^125I-iodo-4′-amino-phenyl)-benzothiazol-6-ol (Compound A), 2-(3-[^18F]-fluoro-4-methylamino-phenyl)-benzothiazol-6-ol (Compound 13), and 2-[4-(3-^18F-fluoro-propylamino)-phenyl]benzothiazol-6-ol (Compound C) were performed in young, wild type mice that had no amyloid deposits in their brain. This study reflects brain entry and clearance from normal brain tissue. […] A measure of non-specific binding clearance rate is provided by the ratio of the 2 minutes-to-30 minutes (% ID-kg)/g values.
The mice were injected in a lateral tail vein with 0.37-3.7 MBq (10-100 μCi) of a high specific activity (˜2.0/μmol) Compound A, Compound B or Compound C contained in ≦0.10 mL of a solution of 95% isotonic saline and 5% ethanol. The mice were anesthetized and killed by cardiac excision following cardiac puncture to obtain arterial blood samples at 2 minutes or 30 minutes post-injection. The mouse brains were rapidly excised and divided into the cerebellum and the remaining whole brain (including brain stem) fractions. The brain samples were counted in a gamma well-counter, and the counts were decay-corrected to the time of injection relative to ^125I or ^18F standards prepared from the injection solution to determine the percent injected dose (% ID) in the samples. The brain samples were weighed to determine the percent injected dose per gram tissue (% ID/g), and this quantity was multiplied by the whole body weight (in kg) to determine the body-weight normalized radioactivity concentration [(% ID-kg)/g] of each tissue sample. […] The radioactivity concentrations (% ID-kg/g) at 2 minutes and 30 minutes and the 2 minutes-to-30 minutes ratios are presented in Table I below.

Nc1ccc(-c2nc3ccc(O)cc3s2)cc1[125I] [Compound A, 2-(3′-^125I-iodo-4′-amino-phenyl)-benzothiazol-6-ol]
2 min./30 min. Ratio: 16 | Radioactivity Conc. at 2 min.: 0.141 % ID-kg/g | Radioactivity Conc. at 30 min.: 0.009 % ID-kg/g | brain entry and clearance (in words): relatively high brain entry at early time points and fast clearance at later time points
